Literature values as cited in patent US9969773B2, “Polymers, pharmaceutical compositions and methods of synthesizing the same” (NEW YORK UNIVERSITY, priority 2014, dated 2018).

Conditions: relative to the original (unPEGylated) protein

PEGylated Interferon α-2a: PEGylated Interferon α-2a, a hepatitis C therapeutic, can consist of various positional isomers
activity retained in comparison to the original protein: 7%
